# Source: PubChem BioAssay AID651647 (Sanford-Burnham Center for Chemical Genomics, 2012)
# Only a part is listed here, and it is no random draw. Calls of active or inactive are those of the source.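 The calls were made as follows: active = GFP/RFP ratio change of at least 30% with cell ATP level not reduced by more than half and red fluorescence within 50% of control; inactive = the rest, inconclusive results apart.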
# Target: Matrix metalloproteinase-14 (Homo sapiens) (UniProt P50281)
# Assay: MT1-MMP activation inhibitors, cellular reporter – HT1080 RFP-PRO-GFP cells, GFP/RFP fluorescence, primary screen (AID 651647)
# Conditions: overnight, at 20 µM, active compounds read high, percent of plate control window, DMSO zero
# How it was run: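 Assay system: HT1080 cells carrying an RFP-PRO-GFP reporter | Dosing: Single dose of 20 µM compound, 1% DMSO final | Incubation: Cells overnight before dosing, compound overnight, 37 °C, 5% CO2 | Evaluation: GFP/RFP fluorescence ratio | Control set: DMSO and RFP-L50D-GFP cell wells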
row,Compound,GFP/RFP ratio change
1,O=P(Nc1nccs1)(c1ccccc1)c1ccccc1,inactive: 2.72%
2,CC(C)C(=O)NC(Sc1ccccc1)C(Cl)(Cl)Cl (stereo not given),inactive: 2.16%
3,c1nnnn1CCn1cnnn1,inactive: -11.5%
4,CN(C)C1(CNC(=O)c2ccc(Cl)c(S(N)(=O)=O)c2)CCCCC1,inactive: -1.48%
5,O=P(Nc1ccccn1)(c1ccc(Br)cc1)c1ccc(Br)cc1,inactive: -21.4%
6,COc1ccc(N)c([N+](=O)[O-])c1[N+](=O)[O-],inactive: 5.42%
7,Nc1ccc(CCCCOc2ccccc2)cc1,inactive: -4.52%
8,O=P(Nc1nc2ccccc2s1)(c1ccccc1)c1ccccc1,inactive: 2.35%
9,C[C@H]1OP(=O)(Oc2ccccc2)[C@H](O)[C@H](O)[C@H]1N=[N+]=[N-] (stereo not given in full),inactive: -3.24%
10,O=[As](O)(c1ccccc1)c1ccc(O)cc1,inactive: -5.93%
11,O=[N+]([O-])c1ncn(CCn2cnc([N+](=O)[O-])n2)n1,inactive: 3.55%
12,CC(=O)NC(SC(=S)N(C)C)C(Cl)(Cl)Cl (stereo not given),inactive: -2.34%
13,O=[N+]([O-])c1ccc(O)c(/C=N/Nc2ccc([N+](=O)[O-])cc2[N+](=O)[O-])c1,inactive: -0.592%
14,O=C(OC1CN2CCC1CC2)c1cccc(Cl)c1 (stereo not given),inactive: -0.704%
15,C(Cc1nn[nH]n1)Cc1nn[nH]n1,inactive: 1.7%
16,Nc1ccc([As](=O)(O)c2ccc([N+](=O)[O-])cc2)cc1,inactive: 0.742%
17,c1ccc(-c2nn[nH]n2)c(-c2nn[nH]n2)c1,inactive: -1.69%
18,Cc1ccc(NP(=O)(Oc2cccc(C)c2)Oc2cccc(C)c2)nc1,inactive: 2.17%
19,O=C(NC1CCS(=O)(=O)C1)NP(=S)(Oc1ccccc1)Oc1ccccc1 (stereo not given),inactive: -1.1%
20,CCNC(=S)/N=C(\N)N[N+](=O)[O-],inactive: 2.32%
21,O=P1(N(CCCl)CCCl)OCCC2CCCCN21 (stereo not given),inactive: 2.41%
22,O=C(OC1CN2CCC1CC2)c1ccccc1 (stereo not given),inactive: 0.64%

row,Compound,GFP/RFP ratio change
1,CCC(=O)N1C2C3N(C(=O)CC)C1C1N(C(=O)CC)C(C(N1C(=O)CC)N3C(=O)CC)N2C(=O)CC,inactive: 0.905%
2,COC(=O)c1cc2c(s1)N=C(c1ccccc1)N(C)P2(=O)N1CCOCC1 (stereo not given),inactive: 1.83%
3,Cc1ccc(OP(=O)(Nc2ccccn2)Oc2ccc(C)cc2)cc1,inactive: 2.8%
4,CC(=O)NC(SC(=S)N(CC(C)C)CC(C)C)C(Cl)(Cl)Cl (stereo not given),inactive: 2.04%
5,CC(NC(=O)COC(=O)C(O)(c1ccccc1)c1ccccc1)c1ccccc1 (stereo not given),inactive: -2.09%
6,Cc1ccccc1OP(=O)(Nc1ccccn1)Oc1ccccc1C,inactive: -2.22%
7,O=c1c2cc([N+](=O)[O-])ccc2[nH]c2c([N+](=O)[O-])cc([N+](=O)[O-])cc12,inactive: -5.5%
8,CN(C)C(=O)Oc1noc2ccccc12,inactive: -1.59%
9,O=P1(Nc2nc3ccc(Cl)cc3s2)COc2ccccc2O1 (stereo not given),inactive: 0.0811%
10,CCOc1ccc(C2=NCC(CBr)S2)cc1 (stereo not given),inactive: -3.96%
11,CC(C)(C)C(=O)NC(Sc1ccccc1)C(Cl)(Cl)Cl (stereo not given),inactive: -1.21%
12,CCc1cc(O)c([N+](=O)[O-])c(C)c1[N+](=O)[O-],inactive: 6.33%
13,C[C@H]1OP(=O)(Oc2ccccc2)C[C@@H]2O[C@@H]21 (stereo not given in full),inactive: 1.27%
14,C[C@@H]1C=CCP(=O)(Oc2ccccc2)O1 (stereo not given in full),inactive: 5.78%
15,CC(=O)c1ccc(N2CC2c2ccncc2)cc1 (stereo not given),inactive: -3.14%
16,N#C/C(=C\c1ccc(N(CCBr)CCBr)cc1)C(N)=O,inactive: 0.489%
17,COC(=O)C1(C)COP(=O)(NCc2ccccc2)OC1 (stereo not given),inactive: 0.28%
18,CC(=O)Nc1ccc([As](=O)(O)O)c(O)c1,inactive: 4.3%
19,CC(=O)Nc1ccc(Oc2c([N+](=O)[O-])cc([N+](=O)[O-])cc2[N+](=O)[O-])cc1,inactive: 2.18%
20,CN(C(=O)Cc1ccc(Cl)c(Cl)c1)[C@H]1CCCC[C@H]1N1CCCC1,inactive: 2.4%
21,Cc1ccc(N/C(=N/P(=O)(N2CCOCC2)N2CCOCC2)N2CCOCC2)cc1,inactive: -11.3%
22,NC(=O)c1cc([N+](=O)[O-])cc([N+](=O)[O-])c1N,inactive: 2.18%

row,Compound,GFP/RFP ratio change
1,CN1CCCC(OC(=O)C(c2ccccc2)c2ccccc2)C1 (stereo not given),inactive: -4.93%
2,Clc1ccc(Cl)c(NC2=NCC(CBr)S2)c1 (stereo not given),inactive: 2.38%
3,COc1ccccc1OP(=O)(Nc1ccc(C)cn1)Oc1ccccc1OC,inactive: -0.457%
4,Cc1ccc(OP(=O)(Nc2nccs2)Oc2ccc(C)cc2)cc1,inactive: 0.311%
5,Oc1ccccc1CNc1ccccn1,inactive: 4.02%
6,O=C(NC(Sc1ccncn1)C(Cl)(Cl)Cl)c1ccccc1 (stereo not given),inactive: -1.15%
7,Nc1cc(N)c2nonc2c1[N+](=O)[O-],inactive: 2.21%
8,CC(C)CC(=O)NC(Sc1ccc(Cl)cc1)C(Cl)(Cl)Cl (stereo not given),inactive: -5.61%
9,O=[N+]([O-])C1C(O)C(O)C([N+](=O)[O-])C(O)C1O (stereo not given),inactive: 2.98%
10,O=P(Nc1nc2ccc(Cl)cc2s1)(c1ccccc1)c1ccccc1,inactive: 3.51%
11,CN(C)P(=O)(N(C)C)n1c(Nc2ccccc2)nnc1-c1ccccc1,inactive: -3.19%
12,CC(=O)Nc1ccc([As](=O)(O)O)cc1,inactive: 0.373%
13,O=C(O)c1ccccc1[As](=O)(O)O,inactive: -3.63%
14,CCCC1OP(N)(=O)OCC1CC (stereo not given),inactive: 3.51%
15,Cc1cc(SC(NC(=O)c2ccc(F)cc2)C(Cl)(Cl)Cl)ncn1 (stereo not given),inactive: 1.11%
16,CCOP(=O)(Nc1ccccc1)OCC,inactive: -3.82%
17,CN(C(=O)Cc1ccc(Cl)c(Cl)c1)[C@H]1CCCC[C@@H]1N1CCCC1,inactive: 2.61%
18,Cc1ccc(NP(=O)(Oc2ccccc2F)Oc2ccccc2F)nc1,inactive: 3.79%
19,Nc1cccc2ccc([As](=O)(O)O)cc12,inactive: 26.4%
20,CCN(N=Nc1nonc1N)c1nonc1N,inactive: -0.673%
21,O=P1(N(CCCl)CCCl)OCCCS1 (stereo not given),inactive: 1.52%
